Values of other authors in patent US20100248223A1, “ASSESSING OUTCOMES FOR BREAST CANCER PATIENTS” (MAYO FOUNDATION FOR MEDICAL EDUCATION AND RESEARCH, priority 2006, published 2010).

The chains behind the UniProt entries cited, without tags or fusion partners.
UniProt P10635, whole entry: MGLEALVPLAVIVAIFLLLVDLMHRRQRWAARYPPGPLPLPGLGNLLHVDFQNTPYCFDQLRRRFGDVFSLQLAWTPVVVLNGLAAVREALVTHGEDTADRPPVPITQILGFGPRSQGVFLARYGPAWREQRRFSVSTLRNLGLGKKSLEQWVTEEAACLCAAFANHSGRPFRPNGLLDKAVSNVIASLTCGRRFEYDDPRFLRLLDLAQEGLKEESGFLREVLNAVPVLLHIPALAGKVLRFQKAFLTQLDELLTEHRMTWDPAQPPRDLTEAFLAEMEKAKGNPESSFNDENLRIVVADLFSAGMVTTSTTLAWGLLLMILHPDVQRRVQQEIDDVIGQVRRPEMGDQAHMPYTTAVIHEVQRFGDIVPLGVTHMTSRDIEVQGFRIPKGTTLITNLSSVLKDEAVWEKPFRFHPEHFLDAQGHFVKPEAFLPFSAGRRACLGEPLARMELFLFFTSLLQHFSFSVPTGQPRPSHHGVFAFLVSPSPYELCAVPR

Target: CYP2D6 enzyme system (Homo sapiens, UniProt P10635)
Settings: classification from cited literature; cited from earlier work

SMILES: CNCCC(Oc1ccc(C(F)(F)F)cc1)c1ccccc1 (stereo not shown) [fluoxetine]
- strength of inhibition of the CYP2D6 enzyme system: potent
